Experimental data published in patent publication US20100080855A1, “HEDGEHOG SIGNALING AND CANCER STEM CELLS IN HEMATOPOIETIC CELL MALIGNANCIES” (THE BOARD OF TRUSTEES OF THE LELAND STANFORD JUNIOR …, priority 2008, published 2010).

What was measured:
[1] = test system: bone marrow KLSF cells infected with wild type BCR-ABL
Text: (§1) Colonies were counted 8-10 days after plating. For the serial replating assay, cells were harvested and counted and 10,000 cells were replated into 12-well plates.
(§2) Additional details concerning the experiment results shown in FIG. 5 are as described here. […] Colonies were counted after 7-10 days. […] Colony numbers were counted on days 8-10. The graph shown is representative of two independent experiments. Error bars show s.e.m.

[2] = test system: bone marrow KLSF cells infected with BCR-ABL T315I; settings: mutant BCR-ABL T315I; cyclopamine 3 μM; colonies counted days 8-10
Text: as §1, §2

[3] = test system: BCR-ABL1 driven leukemia; settings: after seven weeks; 25 mg/kg cyclopamine by oral gavage; 100% of control animals succumbed over four weeks

CC1=C2C[C@H]3[C@@H](CC=C4C[C@@H](O)CC[C@@]43C)[C@@H]2CC[C@]12O[C@@H]1C[C@H](C)CN[C@H]1[C@H]2C [cyclopamine]
reduction of growth (colony formation) ([1]; control (wild type) BCR-ABL1, cyclopamine 3 μM, colonies counted days 8-10): 6 fold | growth / colony number, result in words ([1]; wild type BCR-ABL, 600 GFP positive cells, imatinib 2 μM or cyclopamine 3 μM, days 8-10): decreases colony formation | reduction of growth (colony formation) [2]: 6 fold | mice still alive [3]: 40%
